Reference: PubChem BioAssay AID1053197 (The Scripps Research Institute Molecular Screening Center, 2014)
This is a selection; strong and weak results do not stand in their true shares. Some salts or complexes appear as unconnected parts, following the source record. Calls of active or inactive are those of the source.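 Rule for the calls: active = inhibition above a cutoff: mean of compounds within the control limits plus 3 SD of those (cut at about 17% in these data); inactive = the rest.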

Protein sequences, listed by entry. Tags and fused reporters are not part of them.
UniProt Q9HAT2, whole entry: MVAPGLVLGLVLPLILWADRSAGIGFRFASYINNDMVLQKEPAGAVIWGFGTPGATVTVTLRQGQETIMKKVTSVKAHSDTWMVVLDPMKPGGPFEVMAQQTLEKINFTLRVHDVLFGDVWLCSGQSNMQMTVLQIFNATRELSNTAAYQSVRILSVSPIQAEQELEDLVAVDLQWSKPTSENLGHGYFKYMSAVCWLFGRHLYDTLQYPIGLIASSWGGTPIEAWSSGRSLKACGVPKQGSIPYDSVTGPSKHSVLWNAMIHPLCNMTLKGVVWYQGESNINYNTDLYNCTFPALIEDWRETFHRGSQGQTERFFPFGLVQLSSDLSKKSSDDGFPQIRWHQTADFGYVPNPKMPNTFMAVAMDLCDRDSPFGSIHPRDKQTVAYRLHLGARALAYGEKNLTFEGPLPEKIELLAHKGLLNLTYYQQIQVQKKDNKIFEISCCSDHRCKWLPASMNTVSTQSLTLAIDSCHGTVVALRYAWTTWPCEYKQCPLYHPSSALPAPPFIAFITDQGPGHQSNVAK

What follows are compounds tested against Sialate O-acetylesterase (Homo sapiens) (UniProt Q9HAT2) (assay: human SIAE inhibitors, primary screen, biochemical, fluorescence polarization, FP-Rh probe, 1536-well HTS (AID 1053197;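 note: 0% = plate median of compound wells and 100% = probe without SIAE protein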)). Conditions: SIAE FP-Rh probe binding, at 9.66 µM, hits give high values.

SMILES	inhibition
COc1ccc(-c2ccccn2)cc1.O=[N+]([O-])c1cc([N+](=O)[O-])c(O)c([N+](=O)[O-])c1	inactive: -5.1%
CCCOc1ccc(NP(C)(=O)Oc2ccc(Cl)cc2)cc1 (centres undefined)	inactive: 13.7%
CP(=O)(Nc1ccc(SC(F)(F)F)cc1)Oc1ccccc1 (centres undefined)	inactive: -5.42%
COc1ccccc1OP(C)(=O)Nc1c(C)cccc1C (centres undefined)	inactive: 5.53%
CN1CCCCC1COC(=O)C1(O)c2ccccc2CCc2ccccc21 (centres undefined)	active: 17.1%
O=[N+]([O-])c1cc([N+](=O)[O-])c(Nc2nnnn2CCO)c([N+](=O)[O-])c1	inactive: 1.22%
CCOC(=O)C(CC)C1=NC(C)(C)Cc2ccccc21.O=[N+]([O-])c1cc([N+](=O)[O-])c(O)c([N+](=O)[O-])c1 (centres undefined)	inactive: -2.54%
Cc1nc2ccc3ccccc3c2s1.O=[N+]([O-])c1cc([N+](=O)[O-])c(O)c([N+](=O)[O-])c1	inactive: 0.61%
O=[N+]([O-])c1cc([N+](=O)[O-])c(-c2cnn(-c3ccccc3)c2)c([N+](=O)[O-])c1	inactive: -0.39%
CN(Cc1cccnc1)C(=O)COc1ccc(Cl)c(Cl)c1.O=[N+]([O-])c1cc([N+](=O)[O-])c(O)c([N+](=O)[O-])c1	inactive: -0.5%
O=[N+]([O-])c1cc([N+](=O)[O-])c(-n2nnc3ccccc32)c([N+](=O)[O-])c1	inactive: -3.37%
Cc1ccc(C)c(NP(C)(=O)Oc2ccccc2)c1 (centres undefined)	inactive: -0.12%
Cc1cc(C)cc(OP(C)(=O)Nc2ccccn2)c1 (centres undefined)	inactive: 3.76%
CP(=O)(Nc1cccc(Br)c1)Oc1ccccc1 (centres undefined)	inactive: -2.4%
CCOC(=O)c1ccc(NP(C)(=O)Oc2cc(C)cc(C)c2)cc1 (centres undefined)	inactive: 0.84%
Cc1cc(C)cc(OP(C)(=O)Nc2ccc(C)cc2C)c1 (centres undefined)	inactive: 8.8%
COc1ccccc1OP(C)(=O)Nc1cccc(Br)c1 (centres undefined)	inactive: -2.93%
CC1=NCCc2c1[nH]c1ccccc21.O=[N+]([O-])c1cc([N+](=O)[O-])c(O)c([N+](=O)[O-])c1	inactive: -0.04%
O=C(O)c1cccc(Nc2c([N+](=O)[O-])cc([N+](=O)[O-])cc2[N+](=O)[O-])c1	inactive: 0.09%
Cc1cc(C)cc(OP(C)(N)=O)c1 (centres undefined)	inactive: 8.66%
COc1ccccc1OP(C)(=O)Nc1cc(Cl)ccc1C (centres undefined)	inactive: -1.11%
COc1ccc(OP(C)(=O)Nc2cccc(F)c2)cc1 (centres undefined)	inactive: -2.16%
COc1ccccc1OP(C)(=O)Nc1ccc(C)cc1 (centres undefined)	inactive: -0.43%
Cc1ccc(NP(C)(=O)Oc2ccccc2)c(C)c1 (centres undefined)	inactive: 0.64%
CCOC(=O)c1ccc(NP(C)(=O)Oc2ccccc2)cc1 (centres undefined)	inactive: 5.86%

SMILES	inhibition
O=[N+]([O-])c1ccc2c(c1)C=Nc1ccccc1O2	inactive: 1.9%
CC(C)(C)c1ccc(OP(C)(=O)Nc2ccc(SC(F)(F)F)cc2)cc1 (centres undefined)	inactive: 1.17%
Cc1cccc(C)c1OP(C)(N)=O (centres undefined)	inactive: 0.83%
O=[N+]([O-])c1cc([N+](=O)[O-])c(Nc2cccnc2)c([N+](=O)[O-])c1	inactive: 3.03%
COc1ccccc1-c1ccccn1.O=[N+]([O-])c1cc([N+](=O)[O-])c(O)c([N+](=O)[O-])c1	inactive: -0.2%
CCN(CC)CCCOC(=O)C(O)(c1ccccc1)c1ccccc1	inactive: -9.32%
CP(=O)(Nc1ccccn1)Oc1ccc(Cl)cc1 (centres undefined)	active: 38.6%
CCOC(=O)c1ccc(NP(C)(=O)Oc2ccc(OC)cc2)cc1 (centres undefined)	inactive: 3.47%
O=[N+]([O-])c1cc([N+](=O)[O-])c(O)c([N+](=O)[O-])c1.c1ccc(Oc2ccncc2)cc1	inactive: -2.47%
CCOP(C)(=S)SCC(=O)NC(C)C(=O)O (centres undefined)	inactive: -2.78%
CP(=O)(NC(=O)Nc1ccccc1)Oc1ccccc1 (centres undefined)	active: 90.2%
CCc1ccc(OP(C)(=O)N2CCN(c3ccc([N+](=O)[O-])cc3)CC2)cc1 (centres undefined)	inactive: 2.5%
Cc1cc(C)cc(OP(C)(=O)Nc2ccc(SC(F)(F)F)cc2)c1 (centres undefined)	inactive: -1.8%
Cc1cccc(C)c1OP(C)(=O)Nc1ccc(SC(F)(F)F)cc1 (centres undefined)	inactive: 4.79%
CP(=O)(Nc1ccc(SC(F)(F)F)cc1)Oc1ccc(Cl)cc1 (centres undefined)	inactive: 0.3%
CP(=O)(Oc1ccccc1)OC(c1ccccc1)C(F)(F)F (centres undefined)	inactive: 0.96%
CP(=O)(Nc1ccccc1Br)Oc1ccccc1 (centres undefined)	inactive: -5.07%
COc1ccccc1OP(C)(=O)Nc1ccccc1 (centres undefined)	inactive: -0.66%
CP(=S)(Nn1cnnc1)Oc1ccccc1 (centres undefined)	inactive: 2.11%
CCOC(=O)c1ccc(NP(C)(=O)Oc2ccc(Cl)cc2)cc1 (centres undefined)	inactive: 2.89%
CP(=O)(OC12CC3CC(CC(C3)C1)C2)OC12CC3CC(CC(C3)C1)C2	inactive: -0.65%
Nc1ccc2c(ccc3cccnc32)n1.O=[N+]([O-])c1cc([N+](=O)[O-])c(O)c([N+](=O)[O-])c1	inactive: -6.73%
CN(C)C(=O)c1c([N+](=O)[O-])cc([N+](=O)[O-])cc1[N+](=O)[O-]	inactive: -3.27%
COc1ccccc1OP(C)(=O)Nc1ccccc1Br (centres undefined)	inactive: -4.91%
CC(C)(C)c1ccc(OP(C)(=O)O)cc1	inactive: 6.04%

SMILES	inhibition
CP(=O)(Nc1ccc(Cl)cc1)Oc1ccc(F)cc1 (centres undefined)	inactive: -9.44%
COc1ccccc1OP(C)(=O)Nc1c(C)n(C)n(-c2ccccc2)c1=O (centres undefined)	inactive: 2.74%
O=C(OCCCN1CCCC1)C(O)(c1ccccc1)C1CCCCC1 (centres undefined)	inactive: 4.54%
CP(=O)(Oc1ccccc1)N1CCOC1=O (centres undefined)	inactive: 0.59%
CCc1ccc(OP(C)(=O)Nc2cccnc2)cc1 (centres undefined)	inactive: 10.4%
CCN(CC)CC(O)COC(=O)C(O)(c1ccccc1)C1CCCCC1 (centres undefined)	inactive: 2.34%
COc1ccc(OP(C)(=O)Nc2ccc(Br)cc2)cc1 (centres undefined)	inactive: -3.42%
CP(=O)(Nc1ccccn1)Oc1ccccc1 (centres undefined)	inactive: -2.09%
COc1ccccc1OP(C)(=O)Nc1ccc(C)cc1C (centres undefined)	inactive: 8.7%
CCc1ccc(OP(C)(=O)O)cc1	inactive: -0.94%
Cc1c(NP(C)(=O)Oc2ccc(C(C)C)cc2)c(=O)n(-c2ccccc2)n1C (centres undefined)	inactive: 2.56%
O=[N+]([O-])c1cc([N+](=O)[O-])c(Nc2ccccn2)c([N+](=O)[O-])c1	inactive: 0.91%
COc1ccc(OP(C)(=O)Nc2ccccn2)cc1 (centres undefined)	inactive: 16.7%
CN(C)CCOC(=O)C(O)(c1ccccc1)C1CCCC1 (centres undefined)	inactive: 3.68%
COc1ccccc1OP(C)(=O)Nc1ccc(Br)cc1 (centres undefined)	inactive: 2.76%
CCCCCCCCCCCCCCCC1C[N+](C)(C)CCOP(C)(=O)O1 (centres undefined)	inactive: -3.22%
CP(=O)(Nc1ccc(Cl)cc1Cl)Oc1ccccc1 (centres undefined)	inactive: -1.04%
CP(=O)(OCCOc1ccccc1)OCCOc1ccccc1	inactive: -4.5%
COc1ccccc1OP(C)(=O)Nc1ccc(C)c(C)c1 (centres undefined)	inactive: -3.34%
COc1ccc(OP(C)(=O)Nc2ccccc2Br)cc1 (centres undefined)	inactive: 2.65%
O=C1C(O)=C([N+](=O)[O-])C(=O)C(O)=C1[N+](=O)[O-]	inactive: 7.86%
Cc1cc(C)cc(OP(C)(=O)Nc2cccc(C(F)(F)F)c2)c1 (centres undefined)	inactive: -7.95%
CP(=O)(Nc1ccccc1)Oc1ccc(F)cc1 (centres undefined)	inactive: -4.14%
CCCCCOc1ccc(NP(C)(=O)Oc2ccc(Cl)cc2Cl)cc1 (centres undefined)	inactive: -3.92%
O=[N+]([O-])c1cc([N+](=O)[O-])c(OC2CCCCC2O)c([N+](=O)[O-])c1 (centres undefined)	inactive: 0.99%

SMILES	inhibition
Cc1c([N+](=O)[O-])cc([N+](=O)[O-])c(Br)c1[N+](=O)[O-]	inactive: -2.83%
CCN(CC)CCCOC(=O)C(O)(c1ccccc1)C1CCCCC1 (centres undefined)	inactive: 1.16%
CCOC(=O)c1ccc(NP(C)(=O)Oc2ccc(F)cc2)cc1 (centres undefined)	inactive: -6.02%
COc1ccc(OP(C)(=O)Nc2ccc(SC(F)(F)F)cc2)cc1 (centres undefined)	inactive: -3.57%
CCN(CC)CCCNc1ccccc1[N+](=O)[O-].O=[N+]([O-])c1cc([N+](=O)[O-])c(O)c([N+](=O)[O-])c1	inactive: -6.44%
COc1ccc2c(c1O)-c1c(O)c(OC)cc3c1[C@H](C2)[N+](C)(C)CC3.O=[N+]([O-])c1cc([N+](=O)[O-])c([O-])c([N+](=O)[O-])c1[O-]	inactive: 3.62%
O=C(OC1CN2CCC1CC2)c1ccc([N+](=O)[O-])cc1 (centres undefined)	inactive: 0.62%
O=C(OCCN1CCN(CCOCc2ccccc2)CC1)C(O)(c1ccccc1)c1ccccc1	inactive: -2.33%
CP(=O)(Nc1ccccc1F)Oc1ccccc1 (centres undefined)	inactive: 4.4%
CC(C)c1ccc(OP(C)(=O)Nc2ccc(SC(F)(F)F)cc2)cc1 (centres undefined)	inactive: 2.79%
O=[N+]([O-])c1cc([N+](=O)[O-])c(Nc2ccc(Cl)cc2)c([N+](=O)[O-])c1	inactive: 6.82%
Cc1ccccc1NP(C)(=O)Nc1ccccc1C	inactive: -7.17%
O=[N+]([O-])c1cc([N+](=O)[O-])c(C(F)(F)F)c([N+](=O)[O-])c1O	inactive: -4.13%
CP(=O)(Nc1ccc2c(c1)OCCO2)Oc1ccccc1 (centres undefined)	inactive: -4.31%
CCOP(C)(=S)SCC(=O)NC(C)(CC)C(=O)O (centres undefined)	inactive: 0.32%
CCOP(=O)(CC)OCC	inactive: -1.4%
CP(=O)(Nc1ccc(SC(F)(F)F)cc1)Oc1ccc(F)cc1 (centres undefined)	inactive: 1.75%
Cc1c(C(c2ccc3c(c2)OCO3)c2c(C)n(C)n(-c3ccccc3)c2=O)c(=O)n(-c2ccccc2)n1C.O=[N+]([O-])c1cc([N+](=O)[O-])c(O)c([N+](=O)[O-])c1	inactive: 8.19%
O=[N+]([O-])c1ccc(OP2(=O)COCCO2)cc1 (centres undefined)	inactive: -1.13%
O=[N+]([O-])c1cc([N+](=O)[O-])c(NCC2CCS(=O)(=O)C2)c([N+](=O)[O-])c1 (centres undefined)	inactive: 1.23%
Cc1cc(-c2cccc3ccccc23)c(C)cn1.O=[N+]([O-])c1cc([N+](=O)[O-])c(O)c([N+](=O)[O-])c1	inactive: 1.04%
CN(C)CCOC(=O)C(O)(c1ccccc1)C1CCCCC1 (centres undefined)	inactive: -7.61%
COc1ccc(NP(C)(=O)Oc2ccccc2OC)cc1 (centres undefined)	inactive: 9.36%
COc1ccc(OP(C)(=O)Nc2cccc(Br)c2)cc1 (centres undefined)	inactive: -2.3%
